Test results: patent US10683309B2, “Xanthine derivatives, their use as a medicament, and pharmaceutical preparations comprising the same” (MAX-DELBRÜCK-CENTRUM FÜR MOLEKULARE MEDIZIN, priority 2016, dated 2020)

By UniProt entry, the sequences of proteins in these tests, tags left out. Where a name states a change or a piece, a line headed by the entry shows the natural chain unless it says otherwise.
UniProt P17752: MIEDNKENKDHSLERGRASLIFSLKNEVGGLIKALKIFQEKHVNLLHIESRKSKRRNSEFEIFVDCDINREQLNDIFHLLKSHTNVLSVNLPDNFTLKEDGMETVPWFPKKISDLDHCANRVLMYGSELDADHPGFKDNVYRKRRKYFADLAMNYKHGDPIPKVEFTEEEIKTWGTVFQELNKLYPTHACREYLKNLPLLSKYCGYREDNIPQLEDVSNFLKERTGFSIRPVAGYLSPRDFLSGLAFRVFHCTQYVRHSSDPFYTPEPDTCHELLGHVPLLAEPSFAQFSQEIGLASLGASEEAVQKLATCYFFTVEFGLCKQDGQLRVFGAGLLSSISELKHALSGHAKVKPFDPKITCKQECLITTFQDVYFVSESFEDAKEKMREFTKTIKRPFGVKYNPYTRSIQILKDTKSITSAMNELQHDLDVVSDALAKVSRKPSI

target: recombinant human TPH1 (Swiss-Prot: P17752) (Homo sapiens (Human), UniProt P17752); assay: In vitro enzyme activity assay, fluorescence-based, TPH1 inhibition; conditions: not given

For CCn1c(=O)[nH]c(=O)c2c1nc(Cc1cn3ccccc3n1)n2Cc1ccc(-c2ccc(C(F)(F)F)cn2)cc1 [Ex. 11, 3-ethyl-8-(imidazo[1,2-a]pyridin-2-ylmethyl)-7-(4-(5-(trifluoromethyl)pyridin-2-yl)benzyl)-3,7-dihydro-1H-purine-2,6-dione], the IC50 was 0.94 µM.

same assay, conditions: read-out: IC50 TPH1 (μM) mean; recombinant human TPH1, 40 μM tryptophan, pH 7.0, mean of sample triplicates

Point of comparison: CCn1c(=O)[nH]c(=O)c2c1nc(Cc1cn3ccccc3n1)n2Cc1ccc(C(=O)O)cc1 [Ex. 6, 4-((3-ethyl-8-(imidazo[1,2-a]pyridin-2-ylmethyl)-2,6-dioxo-1,2,3,6-tetrahydro-7H-purin-7-yl)methyl)benzoic acid], IC50 7.83 µM. Against it:
- CCn1c(=O)[nH]c(=O)c2c1nc(Cc1cn3c(n1)CCCC3)n2Cc1ccccc1 [Ex. 2, 7-benzyl-3-ethyl-8-((5,6,7,8-tetrahydroimidazo[1,2-a]pyridin-2-yl)methyl)-3,7-dihydro-1H-purine-2,6-dione] — 19-fold lower, 0.412 µM
- CCn1c(=O)[nH]c(=O)c2c1nc(Cc1cn3c(n1)CCCC3)n2Cc1ccc(-c2ccccc2)cc1 [Ex. 3, 7-([1,1′-biphenyl]-4-ylmethyl)-3-ethyl-8-((5,6,7,8-tetrahydroimidazo[1,2-a]pyridin-2-yl)methyl)-3,7-dihydro-1H-purine-2,6-dione] — 23-fold lower, 0.338 µM
- CCn1c(=O)[nH]c(=O)c2c1nc(Cc1cn3ccccc3n1)n2Cc1ccc(C(=O)OC)cc1 [Ex. 4, Methyl 4-((8-((H-imidazo[1,2-a]pyridin-2-yl)methyl)-3-ethyl-1,2,3,6-tetrahydro-2,6-dioxopurin-7-yl)methyl)benzoate] — 40-fold lower, 0.198 µM
- CCn1c(=O)[nH]c(=O)c2c1nc(Cc1cn3ccccc3n1)n2Cc1ccc2c(c1)OCO2 [Ex. 5, 8-((H-imidazo[1,2-a]pyridin-2-yl)methyl)-7-((benzo[d][1,3]dioxol-5-yl)methyl)-3-ethyl-1H-purine-2,6(3H,7H)-dione] — 19-fold lower, 0.409 µM
- CCn1c(=O)[nH]c(=O)c2c1nc(Cc1cn3ccccc3n1)n2Cc1ccc(-c2ccn(C)n2)cc1 [Ex. 7, 3-ethyl-8-(imidazo[1,2-a]pyridin-2-ylmethyl)-7-(4-(1-methyl-1H-pyrazol-3-yl)benzyl)-3,7-dihydro-1H-purine-2,6-dione] — 44-fold lower, 0.177 µM
- CCn1c(=O)[nH]c(=O)c2c1nc(Cc1cn3ccccc3n1)n2Cc1ccc(-c2noc(C)n2)cc1 [Ex. 8, 7-(4-(5-methyl-1,2,4-oxadiazol-3-yl)benzyl)-8-((H-imidazo[1,2-a]pyridin-2-yl)methyl)-3-ethyl-1H-purine-2,6(3H,7H)-dione] — 36-fold lower, 0.219 µM
- CCn1c(=O)[nH]c(=O)c2c1nc(Cc1cn3ccccc3n1)n2Cc1ccc(-c2ncccn2)cc1 [Ex. 9, 3-ethyl-8-(imidazo[1,2-a]pyridin-2-ylmethyl)-7-(4-(pyrimidin-2-yl)benzyl)-3,7-dihydro-1H-purine-2,6-dione] — 27-fold lower, 0.288 µM
- CCn1c(=O)[nH]c(=O)c2c1nc(Cc1cn3ccccc3n1)n2Cc1ccc(-c2nccs2)cc1 [Ex. 10, 3-ethyl-8-(imidazo[1,2-a]pyridin-2-ylmethyl)-7-(4-(thiazol-2-yl)benzyl)-3,7-dihydro-1H-purine-2,6-dione] — 34-fold lower, 0.232 µM
- CCn1c(=O)[nH]c(=O)c2c1nc(Cc1cn3ccccc3n1)n2Cc1ccc(-c2nc(C)no2)cc1 [Ex. 12, 3-ethyl-8-(imidazo[1,2-a]pyridin-2-ylmethyl)-7-(4-(3-methyl-1,2,4-oxadiazol-5-yl)benzyl)-3,7-dihydro-1H-purine-2,6-dione] — 16-fold lower, 0.487 µM
- CCn1c(=O)[nH]c(=O)c2c1nc(Cc1cn3nc(C)sc3n1)n2Cc1ccccc1 [Ex. 13, 7-benzyl-3-ethyl-8-((2-methylimidazo[2,1-b][1,3,4]thiadiazol-6-yl)methyl)-3,7-dihydro-1H-purine-2,6-dione] — 37-fold lower, 0.213 µM
- CCn1c(=O)[nH]c(=O)c2c1nc(Cc1cn3ccsc3n1)n2Cc1ccccc1 [Ex. 14, 7-benzyl-3-ethyl-8-(imidazo[2,1-b]thiazol-6-ylmethyl)-3,7-dihydro-1H-purine-2,6-dione] — 120-fold lower, 0.068 µM
- CCn1c(=O)[nH]c(=O)c2c1nc(Cc1cn3ccsc3n1)n2Cc1ccc(-c2ccn(C)n2)cc1 [Ex. 15, 7-(4-(1-methyl-1H-pyrazol-3-yl)benzyl)-3-ethyl-8-((imidazo[2,1-b]thiazol-6-yl)methyl)-1H-purine-2,6(3H,7H)-dione] — 230-fold lower, 0.034 µM
- CCn1c(=O)[nH]c(=O)c2c1nc(Cc1cn3cc(C)sc3n1)n2Cc1ccccc1 [Ex. 16, 7-benzyl-3-ethyl-8-((2-methylimidazo[2,1-b]thiazol-6-yl)methyl)-1H-purine-2,6(3H,7H)-dione] — 140-fold lower, 0.054 µM
- CCn1c(=O)[nH]c(=O)c2c1nc(Cc1cn3cc(C)sc3n1)n2Cc1ccc(-c2ccn(C)n2)cc1 [Ex. 17, 3-ethyl-7-(4-(1-methyl-1H-pyrazol-3-yl)benzyl)-8-((2-methylimidazo[2,1-b]thiazol-6-yl)methyl)-3,7-dihydro-1H-purine-2,6-dione] — 93-fold lower, 0.084 µM
- CCn1c(=O)[nH]c(=O)c2c1nc(Cc1cn3c(n1)CCCC3)n2Cc1ccc(-c2ccn(C)n2)cc1 [Ex. 18, 7-(4-(1-methyl-1H-pyrazol-3-yl)benzyl)-3-ethyl-8-((5,6,7,8-tetrahydroimidazo[1,2-a]pyridin-2-yl)methyl)-1H-purine-2,6(3H,7H)-dione] — 37-fold lower, 0.209 µM
- CCn1c(=O)[nH]c(=O)c2c1nc(Cc1cn3ccccc3n1)n2Cc1ccc(CC(=O)OC)cc1 [Ex. 19, methyl 2-(4-((3-ethyl-8-(imidazo[1,2-a]pyridin-2-ylmethyl)-2,6-dioxo-1,2,3,6-tetrahydro-7H-purin-7-yl)methyl)phenyl)acetate] — 10-fold lower, 0.763 µM
- CCn1c(=O)[nH]c(=O)c2c1nc(Cc1cn3cc(Cl)sc3n1)n2Cc1ccc(-c2ccn(C)n2)cc1 [Ex. 20, 8-((2-chloroimidazo[2,1-b]thiazol-6-yl)methyl)-3-ethyl-7-(4-(1-methyl-1H-pyrazol-3-yl)benzyl)-3,7-dihydro-1H-purine-2,6-dione] — 35-fold lower, 0.225 µM
- CCn1c(=O)[nH]c(=O)c2c1nc(Cc1cn3cc(Cl)sc3n1)n2Cc1ccccc1 [Ex. 21, 7-benzyl-8-((2-chloroimidazo[2,1-b]thiazol-6-yl)methyl)-3-ethyl-3,7-dihydro-1H-purine-2,6-dione] — 48-fold lower, 0.162 µM
- O=c1[nH]c(=O)n(C2CC2)c2nc(Cc3cn4ccccc4n3)n(Cc3ccccc3)c12 [Ex. 22, 7-benzyl-3-cyclopropyl-8-(imidazo[1,2-a]pyridin-2-ylmethyl)-3,7-dihydro-1H-purine-2,6-dione] — 9.8-fold lower, 0.802 µM
- CCn1c(=O)[nH]c(=O)c2c1nc(Cc1cn3ccccc3n1)n2Cc1ccc(CCO)cc1 [Ex. 23, 3-ethyl-7-(4-(2-hydroxyethyl)benzyl)-8-(imidazo[1,2-a]pyridin-2-ylmethyl)-3,7-dihydro-1H-purine-2,6-dione] — 3.8-fold lower, 2.06 µM
- CCn1c(=O)[nH]c(=O)c2c1nc(Cc1cn3ccccc3n1)n2Cc1ccc(CC(=O)O)cc1 [Ex. 24, 2-(4-((3-ethyl-8-(imidazo[1,2-a]pyridin-2-ylmethyl)-2,6-dioxo-1,2,3,6-tetrahydro-7H-purin-7-yl)methyl)phenyl)acetic acid] — 17-fold higher, 134 µM
- CCn1c(=O)[nH]c(=O)c2c1nc(Cc1cn3cc(C)sc3n1)n2Cc1ccc(F)cc1 [Ex. 26, 3-ethyl-7-(4-fluorobenzyl)-8-((2-methylimidazo[2,1-b]thiazol-6-yl)methyl)-3,7-dihydro-1H-purine-2,6-dione] — 36-fold lower, 0.217 µM
- CCn1c(=O)[nH]c(=O)c2c1nc(Cc1cn3cc(C)sc3n1)n2Cc1ccc(OC)cc1 [Ex. 27, 3-ethyl-7-(4-methoxybenzyl)-8-((2-methylimidazo[2,1-b]thiazol-6-yl)methyl)-3,7-dihydro-1H-purine-2,6-dione] — 59-fold lower, 0.133 µM
- CCn1c(=O)[nH]c(=O)c2c1nc(Cc1cn3cc(Cl)sc3n1)n2Cc1ccc(NC(C)=O)cc1 [Ex. 28, N-(4-((8-((2-chloroimidazo[2,1-b]thiazol-6-yl)methyl)-3-ethyl-1,2,3,6-tetrahydro-2,6-dioxopurin-7-yl)methyl)phenyl)acetamide] — 68-fold lower, 0.116 µM
- CCn1c(=O)[nH]c(=O)c2c1nc(Cc1cn3cc(Cl)sc3n1)n2Cc1ccc(-n2cncn2)cc1 [Ex. 29, 7-(4-(1H-1,2,4-triazol-1-yl)benzyl)-8-((2-chloroimidazo[2,1-b]thiazol-6-yl)methyl)-3-ethyl-3,7-dihydro-1H-purine-2,6-dione] — 19-fold lower, 0.419 µM
- CCn1c(=O)[nH]c(=O)c2c1nc(Cc1cn3cc(C)sc3n1)n2Cc1ccc(NC(C)=O)cc1 [Ex. 30, N-(4-((3-ethyl-8-((2-methylimidazo[2,1-b]thiazol-6-yl)methyl)-2,6-dioxo-1,2,3,6-tetrahydro-7H-purin-7-yl)methyl)phenyl)acetamide] — 140-fold lower, 0.056 µM
- CCn1c(=O)[nH]c(=O)c2c1nc(Cc1cn3c(n1)CCCC3)n2Cc1ccc(-n2cncn2)cc1 [Ex. 31, 7-(4-(1H-1,2,4-triazol-1-yl)benzyl)-3-ethyl-8-((5,6,7,8-tetrahydroimidazo[1,2-a]pyridin-2-yl)methyl)-3,7-dihydro-1H-purine-2,6-dione] — 17-fold lower, 0.469 µM
- CCn1c(=O)[nH]c(=O)c2c1nc(Cc1cn3cc(C)sc3n1)n2Cc1ccc(N2CCCC2=O)cc1 [Ex. 32, 3-ethyl-8-((2-methylimidazo[2,1-b]thiazol-6-yl)methyl)-7-(4-(2-oxopyrrolidin-1-yl)benzyl)-3,7-dihydro-1H-purine-2,6-dione] — 110-fold lower, 0.069 µM
- CCn1c(=O)[nH]c(=O)c2c1nc(Cc1cn3c(n1)CCCC3)n2Cc1ccc(-n2ccnc2)cc1 [Ex. 33, 7-(4-(1H-imidazol-1-yl)benzyl)-3-ethyl-8-((5,6,7,8-tetrahydroimidazo[1,2-a]pyridin-2-yl)methyl)-3,7-dihydro-1H-purine-2,6-dione] — 14-fold lower, 0.546 µM
- CCn1c(=O)[nH]c(=O)c2c1nc(Cc1cn3cc(Cl)sc3n1)n2Cc1ccc(N2CC(F)(F)C2)cc1 [Ex. 34, 8-((2-chloroimidazo[2,1-b]thiazol-6-yl)methyl)-7-(4-(3,3-difluoroazetidin-1-yl)benzyl)-3-ethyl-3,7-dihydro-1H-purine-2,6-dione] — 19-fold lower, 0.411 µM
- CCn1c(=O)[nH]c(=O)c2c1nc(Cc1cn3c(n1)CCCC3)n2Cc1ccc(NC(C)=O)cc1 [Ex. 35, N-(4-((3-ethyl-2,6-dioxo-8-((5,6,7,8-tetrahydroimidazo[1,2-a]pyridin-2-yl)methyl)-1,2,3,6-tetrahydro-7H-purin-7-yl)methyl)phenyl)acetamide] — 27-fold lower, 0.286 µM
